# Screening results deposited in PubChem by Broad Institute.
# Compounds with a hit are over-represented: about 1.5% of the library has one in this group of screens.
# PGC1a acetyl inh: PGC1a acetylation modulation, inhibitor mode. U2OS PGC1a acetylation, AlphaScreen anti-acetyl-lysine; with virally co-expressed GCN5 acetyltransferase. 350,000 tested, 0.17% active. inhibition, % at 15.6 µM;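 active means every replicate shows inhibition of at least 40%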;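 further: 0% = neutral control wells and 100% = positive control wells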
# Cneo AK release: Cryptococcus neoformans lysis via adenylate kinase release; C. neoformans lysis, adenylate kinase release luminescence, 4 h; normalised: neutral wells 0, clomiphene wells 100; lysis activity, % at 15 µM; 360,000 tested, 0.2% active; AID 651654;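 active means mean lysis activity across replicates of at least 80%, whatever share of replicates individually reach that level; inactive means mean lysis activity below 80%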
#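 Material – log-phase Cryptococcus neoformans yeast cells · Input – 5 × 10^6 yeast cells/mL · Medium – fresh YPD growth medium · Doses – single compound concentration per well · Timing – static 4 h at 37 °C with compound, 1 h detection · Detection – adenylate kinase release luminescence · Read-out – signal increase indicating cell lysis · Control set – Clomiphene as positive lysis control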
# UUG fidelity: alters start codon recognition fidelity in yeast. 350,000 tested, 0.13% active. activity score, % at 18.7 µM. S. cerevisiae UUG-firefly luciferase reporter, luminescence/redox ratio;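 active = replicate mean at a twofold rise or more, about +100% in these data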;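 also: firefly luciferase made from a UUG start codon reports start codon fidelity; reporter light over untreated wells divided by growth signal over untreated wells; some hits fall short of that in this replicate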
# miR122 inh: blocks miR-122 activity in Huh7 sensor cells; Huh7 miR-122 Renilla luciferase sensor, 48 h; neutral wells = 0, positive control = 100; activation (reporter increase), % at 12.5 µM; 340,000 tested, 0.3% active; AID 602342;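 active means mean replicate activation score at least 90 and every replicate individually at or above 90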;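 further: higher luciferase means less miR-122 activity so hits act as miR-122 inhibitors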
# Env fusion inh: blocks HIV Env-driven cell-cell fusion; 360,000 tested, 1.1% active; AID 651610; HeLa-JRFL Env/CEM21 cell fusion, luciferase; inhibition, % at 12.3 µM;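 active means mean replicate inhibition score of at least 50 and every replicate individually at or above 50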;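 further: 0% = plate neutral controls and 100% = maraviroc near 300 nM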
# FN deposition inh: fibronectin deposition inhibition; inhibition, % at 12.6 µM; AH1F fibroblasts, Alexa488-fibronectin deposition fluorescence, overnight; 350,000 tested, 0.086% active;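 active means mean inhibition across replicates of 30% or more, regardless of how many single replicates reach that level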;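 further: positive control wells lacked labelled fibronectin entirely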
#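 Assay system: AH1F fibroblasts / Quantity: 10000 cells per well / Medium: DMEM plus 2% serum, read in PBS / Reagent: labelled fibronectin 24 nM / Dosing: single dose, pinned / Times: 1 h cell attachment, overnight exposure to compound and label / Signal: fluorescence, ex 485 nm, em 525 nm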
# Numbers without * were called inactive; x = no result; [ ] = remark or other dose.
# Sample of the layout:
Structure,PGC1a acetyl inh,Cneo AK release,UUG fidelity,miR122 inh,Env fusion inh,FN deposition inh
C[C@H]1CN([C@@H](C)CO)S(=O)(=O)c2ccc(Br)cc2O[C@H]1CN(C)Cc1ccc(F)cc1,-17,1,-1,-1,71*[16.7 µM],6
C[C@H](CO)N1C[C@H](C)[C@@H](CN(C)Cc2ccc(F)cc2)Oc2cc(Br)ccc2S1(=O)=O,-20,0,5,6[16.7 µM],40[16.7 µM],-6

# The list itself (from the top)
Structure,PGC1a acetyl inh,Cneo AK release,UUG fidelity,miR122 inh,Env fusion inh,FN deposition inh
C[C@H]1CN([C@@H](C)CO)S(=O)(=O)c2ccc(Br)cc2O[C@H]1CN(C)Cc1ccc(F)cc1,-17,1,-1,-1,71*[16.7 µM],6
C[C@H](CO)N1C[C@H](C)[C@@H](CN(C)Cc2ccc(F)cc2)Oc2cc(Br)ccc2S1(=O)=O,-20,0,5,6[16.7 µM],40[16.7 µM],-6
CCCC(=O)Nc1ccc2c(c1)OC[C@@H](C)N(Cc1nccs1)C[C@H](C)[C@H](OC)CN(C)C2=O,1,0,-1,x,x,0
CCc1ccc(-c2cc(C(=O)NCc3ccccn3)c3ccccc3n2)cc1,x,x,x,148*,-30,x
Cc1ccc(-c2cc(C(=O)NCc3ccccn3)c3ccccc3n2)cc1,x,2,-30,x,x,x
Cc1cc(C)c(Nc2ncnc(N)n2)c(C)c1,x,1,-16,-2,18,-5
O=C(NC(=S)Nc1ccc(N2CCCCC2)c(Cl)c1)c1ccc2c(c1)OCCO2,-3,-2,-18,3,70*,-9
O=C(NC(=S)Nc1ccc(N2CCOCC2)c(Cl)c1)c1cncc(Br)c1,x,x,x,x,-47,2
COc1cc(NC2c3ncccc3C(=O)N2Cc2ccco2)cc(OC)c1 (stereo not given),-19,1,-4,-6,60*,x
N#Cc1c(-c2ccccc2)nc(-c2cccnc2)[nH]c1=O,4,0,-2,-5,-17,-8
Cc1ccc(S(=O)(=O)Nc2cccc3c2O[C@H](CN(C)CC2CC2)[C@@H](C)CN([C@@H](C)CO)C3=O)cc1,x,18,-6,4[16.7 µM],3[16.7 µM],-2
[N-]=[N+]=NCc1ccccc1C[C@]1(C(=O)N2CCCCC2)N=C(c2ccc(OCCCO)cc2)O[C@H]1c1ccccc1,x,-1,0,x,68*[16.7 µM],x
CC(OC(=O)CCC(=O)c1cccs1)C(=O)Nc1ccccc1[N+](=O)[O-] (stereo not given),-3,x,x,-3,7,-1
CCOc1ccc(-c2[nH]ncc2-c2ccc(OC)c(OC)c2)c(O)c1,-68,-4,-12,49,67*,0
COc1ccc(-c2cn[nH]c2-c2ccc(O)cc2O)cc1OC,-4,-5,-15,1,6,6
COc1ccc(-c2[nH]ncc2-c2ccc3c(c2)OCCO3)c(O)c1,53*,x,x,47,x,x
COc1ccc(-c2cn[nH]c2-c2ccc(OCc3ccc([N+](=O)[O-])cc3)cc2O)cc1,x,x,x,x,73*,-5
Cn1nc(C(C)(C)C)cc1C(=O)N1CCCCC1c1cc(C(=O)Nc2cccc(C#N)c2)no1 (stereo not given),-2,-1,-1,1,5,-4
Cc1onc(-c2ccccc2)c1C(=O)Nc1ccc(S(=O)(=O)Nc2nccs2)cc1,7,1,-7,43,3,6
CCOc1cc(/C=C/C(=O)c2ccc(O)cc2)ccc1OCC(=O)N(C)C,9,1,3,0,18,2
O=C1CN(C(=O)c2ccc(Br)o2)C(c2ccccc2)c2cc(Cl)ccc2N1 (stereo not given),-18,-1,-7,5,58*,-3
COc1ccc(NC(=O)C2CC2)cc1NS(=O)(=O)c1ccc(F)cc1,-5,-7,-30,-3,6,-1
Nc1nonc1C(=O)NCCNCc1c(OCc2ccccc2F)ccc2ccccc12,-19,-1,-11,x,103*,x
Nc1nonc1C(=O)NCCNCc1cc(Br)ccc1OCc1ccc(F)cc1,x,-1,8,-12,67*,8
O=C(Nc1ccc(F)cc1)N1C[C@@H]2[C@H](c3ccccc31)[C@H](CO)N2Cc1cocn1,-3,91*,56,-3[16.7 µM],x,x
O=C(c1cccc(F)c1)N1C[C@@H]2[C@H](c3ccccc31)[C@H](CO)N2Cc1cocn1,-5,82*,41,79[16.7 µM],x,-18
CC[C@]12c3[nH]c4ccc(OC)cc4c3CCN1C(=O)C(CC(=O)NCCCN(C)C)C[C@@H]2C(=O)N1CCN(C(=O)C2CC2)CC1 (stereo not given in full),x,1,-15,x,11,-1
CC[C@]12c3[nH]c4ccccc4c3CCN1C(=O)C(CC(=O)NCC13CC4CC(CC(C4)C1)C3)C[C@@H]2C(=O)N1CCN(C(=O)C2CC2)CC1 (stereo not given in full),x,1,-4,-13,100*,5
CC[C@]12c3[nH]c4ccc(Cl)cc4c3CCN1C(=O)[C@@H](CC(=O)NCc1ccco1)C[C@@H]2C(=O)N1CCN(C(=O)C2CC2)CC1,8,-7,-9,-7,-11,3
CC[C@]12c3[nH]c4ccc(Cl)cc4c3CCN1C(=O)[C@@H](CC(=O)NCC13CC4CC(CC(C4)C1)C3)C[C@@H]2C(=O)N1CCN(C(=O)C2CC2)CC1,6,0,-26,-11,58*,x

# Quoted at random: three compounds from above.
Structure,PGC1a acetyl inh,Cneo AK release,UUG fidelity,miR122 inh,Env fusion inh,FN deposition inh
CCOc1ccc(-c2[nH]ncc2-c2ccc(OC)c(OC)c2)c(O)c1,-68,-4,-12,49,67*,0
COc1ccc(NC(=O)C2CC2)cc1NS(=O)(=O)c1ccc(F)cc1,-5,-7,-30,-3,6,-1
CC[C@]12c3[nH]c4ccc(Cl)cc4c3CCN1C(=O)[C@@H](CC(=O)NCC13CC4CC(CC(C4)C1)C3)C[C@@H]2C(=O)N1CCN(C(=O)C2CC2)CC1,6,0,-26,-11,58*,x

# (continued)
Structure,PGC1a acetyl inh,Cneo AK release,UUG fidelity,miR122 inh,Env fusion inh,FN deposition inh
CC[C@]12c3[nH]c4ccccc4c3CCN1C(=O)C(CC(=O)NC(C)(C)C)C[C@@H]2C(=O)N1CCN(C(=O)C2CC2)CC1 (stereo not given in full),2,-3,5,7,x,12
CC[C@]12c3[nH]c4ccccc4c3CCN1C(=O)C(CC(=O)NCc1ccc(OC)c(OC)c1)C[C@@H]2C(=O)N1CCN(C(=O)C2CC2)CC1 (stereo not given in full),3,4,14,-2,61*,-3
CC[C@]12c3[nH]c4ccc(OC)cc4c3CCN1C(=O)C(CC(=O)NCC13CC4CC(CC(C4)C1)C3)C[C@@H]2C(=O)N1CCN(C(=O)C2CC2)CC1 (stereo not given in full),0,2,-3,-1,70*,0
CCN1C(=O)[C@H]2[C@@H](c3ccc(OC)cc3)N[C@]3(CCCN(Cc4ccc(Br)cc4)C3=O)[C@H]2C1=O,1,0,-7,-10,-5,18
O=C(CSc1nc2ccc([N+](=O)[O-])cc2[nH]1)NC1CCCCCC1,x,0,-15,328*,116*,x
O=[N+]([O-])c1ccc2nc(SCc3cn4cc(Cl)ccc4n3)[nH]c2c1,x,x,x,x,112*,-3
O=[N+]([O-])c1ccc2nc(SCc3cn4ccccc4n3)[nH]c2c1,x,x,x,x,6,-1
Nn1c(SCC(=O)N2CCCCCC2)nnc1-c1ccncc1,2,-2,-12,-5,x,x
COc1ccc(C(=O)COC(=O)CNC(=O)c2ccc(C)s2)c(OC)c1,3,4,1,-3,x,3
CCc1cnc(N2[C@H](C#N)[C@H](c3ccc(C#Cc4ccccc4F)cc3)[C@H]2CO)s1,-38,1,-13,x,65*[16.7 µM],-19
CCc1cnc(N2[C@H](C#N)[C@H](c3ccc(C#Cc4ccccc4F)cc3)[C@@H]2CO)s1,-15,2,-12,x,10[16.7 µM],11
